These results are taken from US20240261425A1, “CONJUGATE AND THE PREPARING METHOD AND USE THEREOF” (Nanjing University, priority 2021, published 2024).

The target in test [1] is T1, sfGFP E124C (Aequorea victoria, UniProt P42212, A206V/E124C/F64L/F99S/I171V/M153T/N105T/Q80R/S30R/S65T/V163A/Y145F/Y39N). On the set-up: His6 (HHHHHH after a GGGGLE linker) (C). The note with it: sfGFP E124C (320 μM, 5 μL), Michael acceptor (6.4 μL, 5 mM), PBS pH 8, 37° C., 2 h. The text has this:
Michael acceptors are common reagents for an addition reaction with a cysteine on an antibody. A new Michael acceptor was been investigated so that they may react efficiently and chemo-selectively with cysteine on antibodies. And no degradation occurred in the serum after the modification of the Michael acceptor with the antibody. Based on this, a candidate Michael acceptor was used as a reaction reagent with a green fluorescent protein which is regarded as a template protein to screen the Michael acceptor. Taking the reactivity, chemo-selectivity, and stability into consideration, it was screened out the Michael acceptor which was capable of reacting with a cysteine efficiently.

Test [2] concerns the target T1, sfGFP E124C. On the set-up: His6 (HHHHHH after a GGGGLE linker) (C). The note with it: compared with alkenyl sulfonic acid amide, alkynyl phosphate, maleimide (5), carbonyl acrylic amide (4).

Turning to `O=S(=O)(F)/C=C/c1ccccc1` [Michael acceptor 1], at sfGFP E124C [1], the Addition number turned out to be 2 and the “Conversion (%)” value is on record as greater than 99%. The reactivity result at sfGFP E124C [2] was “moderate”.
Regarding `CN1C(=O)C=CC1=O` [MA 5, reference compound], on sfGFP E124C [1], the Addition number was found to be 0 and the “Conversion (%)” value is reported as 0%.
